Experiments:
[1] = Peritoneal clearance from peritoneal equilibration test (PET); settings: [Dialysate] t = 1 h / [Blood] t = 0 h × dialysate volume / 60 min, total blood concentration, ESRD patients in PET, N 14, 13 testosterone, 10 cortisol, 13 hepcidin
[2] = in vivo
Protocol: (§1) All were centrifuged at 2000 g for 10 min.
(§2) Measurements of urea, creatinine, and IgG were performed on a Cobas C8000 random access analyzer (Roche Diagnostics, Basel, Switzerland).
(§3) This MS-based assay determines total hepcidin (i.e., the sum of bound and unbound fraction). Peptide spectra were generated on a Microflex LT […] laser desorption/ionisation TOF MS platform (Bruker Daltonics, Hamburg, Germany). Hepcidin concentrations were expressed as nmol/L. The lower limit of quantification of this method was 0.5 nM.
Cortisol and testosterone were analyzed by Liquid Chromatography-Mass Spectrometry (LC-MS/MS) after protein precipitation and solid-phase extraction. Internal standard [^2H4]-cortisol and [^13C3]-testosterone (Isoscience, Ambler, PA, USA) was added to 100 µL serum. Subsequently, 300 µL acetonitrile with 0.1% formic acid was added for protein precipitation and 300 µL H2O was added to 200 µL supernatant followed by solid phase extraction (Oasis HLB 1cc, Waters, Milford, MA, USA). […] Two transitions (qualitative and quantitative) were monitored. […]

[3] = in vivo; remark: listed apart in the source
Protocol: as §1, §2, §3
Testosterone and cortisol in peritoneal dialysate were analyzed by LC-MS/MS after solid-phase extraction. Sample preparation consisted of internal standard addition [13C3]-testosterone (Isoscience, Ambler, PA, USA) and […] (Isoscience) to 1000 µL dialysate and solid phase extraction (SPE) using Oasis® MCX 1cc cartridges (Waters Corp, Milford, MA, USA).
Columns were pre-equilibrated with 1 mL MeOH:IPA (95:5) and subsequently washed with 1 mL H2O. After application of the sample, columns were washed with 1 mL H2O:NH4OH (95:5) and 1 mL MeOH:H2O (20/80) + 2% HCOOH. The 300 µL eluate (MeOH) was dried under a stream of N2 gas, reconstituted in MeOH:H2O (30:70). […] Two mass transitions were monitored for each analyte and the internal standards. The first transition was used for quantification, the second for confirmation. […]

Substance	Peritoneal Clearance t = 0–1 h Mean (sd) [1]	[Plasma] t = 0 h Mean (sd) [2]	[Dialysate] t = 1 h Mean (sd) [3]
Albumin: endogenous plasma protein, freely circulating solute of the curve	242.3 (164.2) µL/min	32.1 (4.9) g/L	0.2 (0.1) g/L
β2-microglobulin: endogenous freely circulating plasma protein	2804.0 (1587.8) µL/min	18.7 (5.0) mg/L	1.4 (0.9) mg/L

From publication PMC6789442, “Unraveling Hepcidin Plasma Protein Binding: Evidence from Peritoneal Equilibration Testing” (Pharmaceuticals, 2019)
